Experimental data: patent US20220401514A1, “ANTIMICROBIAL, BACTERIOPHAGE-DERIVED POLYPEPTIDES AND THEIR USE AGAINST GRAM-NEGATIVE AND ACID-FAST BACTERIA” (CONTRAFECT CORPORATION, priority 2019, published 2022)
In brackets after ≈: the same amount, converted by molar mass.

Legend:
[1] = system: Acinetobacter baumannii strain 30; assay: Checkerboard assay (FICI) with antibiotics, A. baumannii
[2] = system: P. aeruginosa strain CFS-1292; assay: Checkerboard assay (FICI) with antibiotics, P. aeruginosa; details: P. aeruginosa CFS-1292, CAA + […] human serum
[3] = system: Klebsiella pneumoniae strain 1139; assay: Checkerboard assay (FICI) with antibiotics, K. pneumoniae; details: in combination with Unp2-M1
[4] = system: P. aeruginosa strain CFS-1292; assay: microbe, parasite or virus in culture; assay type: cell-based; details: Pseudomonas aeruginosa, CFS1292
P. aeruginosa (CFS 1292) = assay: microbe, parasite or virus in culture; assay type: cell-based; details: Pseudomonas aeruginosa, read-out: MIC Untreated control

SMILES: NCC[C@H](O)C(=O)N[C@@H]1C[C@H](N)[C@@H](O[C@H]2O[C@H](CN)[C@@H](O)[C@H](O)[C@H]2O)[C@H](O)[C@H]1O[C@H]1O[C@H](CO)[C@@H](O)[C@H](N)[C@H]1O [Amikacin]
- Antibiotic MIC ([1]; in combination with Chp2): 0.0625 mg/L
- Antibiotic MIC ([1]; in combination with Chp2-M1): 0.125 mg/L
- Antibiotic MIC ([1]; in combination with Chp4-M1): 0.0625 mg/L
- Antibiotic MIC ([1]; in combination with Chp6-M1): 0.125 mg/L
- Antibiotic MIC ([1]; in combination with Chp10-M1): 0.0625 mg/L
- Antibiotic MIC ([1]; in combination with Unp2-M1): 0.125 mg/L
- Antibiotic MIC in checkerboard ([2]; combined with Chp4-M1): 0.125 mg/L

SMILES: C[C@@H](O)[C@H]1C(=O)N2C(C(=O)O)=C(S[C@@H]3CN[C@H](C(=O)N(C)C)C3)[C@H](C)[C@H]12 [meropenem, reference compound]
- Antibiotic MIC ([1]; in combination with Chp2): 0.0625 mg/L
- Antibiotic MIC ([1]; in combination with Chp2-M1): 0.0625 mg/L
- Antibiotic MIC ([1]; in combination with Chp4-M1): 0.125 mg/L
- Antibiotic MIC ([1]; in combination with Chp6-M1): 0.125 mg/L
- Antibiotic MIC ([1]; in combination with Chp10-M1): 0.0625 mg/L
- Antibiotic MIC ([1]; in combination with Unp2-M1): 0.125 mg/L
- Antibiotic MIC [3]: 0.03125 mg/L

SMILES: NC[C@H]1O[C@H](O[C@H]2[C@H](O)[C@@H](O[C@H]3O[C@H](CO)[C@@H](O)[C@H](N)[C@H]3O)[C@H](N)C[C@@H]2N)[C@H](N)C[C@@H]1O [tobramycin, reference compound]
- MIC [4]: 0.0625 mg/L (≈ 0.134 µM)
- MIC (P. aeruginosa (CFS 1292)): 0.125 mg/L (≈ 0.267 µM)
- Antibiotic MIC ([1]; in combination with Chp4-M1): 0.03125 mg/L
- Antibiotic MIC in checkerboard ([2]; combined with Chp2-M1): 0.125 mg/L
- Antibiotic MIC in checkerboard ([2]; combined with Chp2): 0.125 mg/L
- Antibiotic MIC in checkerboard ([2]; combined with Chp4-M1): 0.125 mg/L
- Antibiotic MIC in checkerboard ([2]; combined with Chp6-M1): 0.125 mg/L
- Antibiotic MIC in checkerboard ([2]; combined with Chp10-M1): 0.0625 mg/L
- Antibiotic MIC in checkerboard ([2]; combined with Unp2-M1): 0.125 mg/L
